Some tests of the compounds listed are not included; inactive here does not mean inactive elsewhere. Activity calls are given as the source filed them.
Columns and labels:
Type in all cases: functional, cell-based
U-937 = test: Inhibition of foam cell formation in LDL exposed human U937 cells assessed as accumulation of red O-stained lipid droplets at 10 uM for 14 hrs by nile red fluorescence assay
Method in brief: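 U937 grown in RPMI with 10% FCS were used at subconfluence. They were incubated for 14 h in fresh RPMI containing native LDL (100 µg/mL), 1 µM CuSO₄ and agent (10 µM). Cells were fixed in 10% paraformaldehyde, stained with 0.5 µg/mL Nile Red, scraped and read fluorometrically (ex 460/em 550 nm). Parallel slides were stained with oil red O and hematoxylin and examined microscopically. Data are the mean of three experiments.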

HMEC-1 [1] = test: Cytoprotective activity against ultraviolet irradiation oxidized LDL and 4-hydroxynonenal-induced cytotoxicity in HMEC1 cells assessed as cell survival at 10 uM after 24 hrs relative to control; conditions: Homo sapiens
Method in brief: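 HMEC-1 were exposed to 4-HNE added directly to the medium, or to UV-oxidized LDL. For the oxidized LDL, LDL at 2 mg apoB/mL with 2 µmol/L CuSO₄ was irradiated with UV-C (254 nm) for 2 h and then added at 200 µg apoB/mL. Compounds were present during exposure. Viability was read by MTT after 24 h, as % of cells in LDL-free medium. Each value is the mean of four determinations.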

HMEC-1 [2] = test: Inhibition of 4-hydroxynonenal-induced carbonyl stress in HMEC1 cells assessed as prevention of increase in carbonylated protein level at 10 uM relative to control; conditions: Homo sapiens
Method in brief: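 HMEC-1 were incubated overnight with 50 µM 4-HNE in FCS-free RPMI-1640 with the compound, then washed, scraped and pelleted. Protein was derivatized for 1 h at room temperature with 0.1% DNPH in 2 M HCl, precipitated with TCA, and washed with ethanol/ethyl acetate. It was dissolved in 8 M guanidine buffer (pH 7.4) and read at 365 nm. Results are % of unstimulated control, mean of four experiments.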

Measured: Activity

CCOP(=O)(F)/C=C/c1cc(OC)c(O)c(-c2cc(/C=N/NC(=O)c3ccncc3)cc(OC)c2O)c1 (stereo not drawn)
inactive: all assays above

Reference: ChEMBL document CHEMBL1150353, “Development of novel antiatherogenic biaryls: design, synthesis, and reactivity” (2008)
